## Yeast mating assay 2: variants of the scFv Ab-91

From the AlphaSeq antibody data of Engelhart et al. 2022 (doi:10.1038/s41597-022-01779-4), copy in the FLAb collection.

Target: peptide PDVDLGDISGINAS, taken from heptad repeat 2 (HR2) of SARS-CoV-2 spike.

Parent scFv Ab-91: VL joined to VH by the linker GGGGSGGGGSGGGGS. Changes lie in the heavy chain CDRs alone.
VL: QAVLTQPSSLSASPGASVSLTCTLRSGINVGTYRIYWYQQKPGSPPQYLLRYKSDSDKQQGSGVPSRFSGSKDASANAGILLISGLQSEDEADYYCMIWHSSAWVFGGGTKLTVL
VH: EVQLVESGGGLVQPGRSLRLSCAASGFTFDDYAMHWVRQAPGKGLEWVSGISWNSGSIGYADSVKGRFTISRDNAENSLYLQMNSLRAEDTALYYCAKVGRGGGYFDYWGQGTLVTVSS

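The starting antibody came from a phage panning campaign against this peptide. Library AAYL51 holds single substitutions and randomly drawn double and triple substitutions in the CDRs. The assay is AlphaSeq: two haploid yeast populations carry antibody and antigen on their surface. Mating (16 h, 30 °C) was followed by selection of diploids and sequencing of their barcodes. Scores were corrected for input abundance and mapped to Kd with protein pairs of known affinity run in the same pool. Mating was done three times.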

The parent's heavy chain CDRs are GFTFDDYAMH, GISWNSGSIGYADSVK, VGRGGGYFDY; each variant's own CDRs replace them letter for letter.
Scale: log10 of Kd in nM, estimated from mating counts; low values are strong binders.
An entry "n.d." has no value in the source: the pair was not observed among the diploids in that replicate. This suggests poor binding but is not conclusive.
Three control strains display no target. For library AAYL51, 21% of the pairings with them gave a signal, with a median of 4.54 and one signal in twenty below 3.26, so weak values seen in few replicates may be background. Also given: how often the same scFv was detected with the empty control strains, with their mean in brackets.
Parent in this assay: reference entry 1.86, copy in this library 0.88.

CDR-H1 | CDR-H2 | CDR-H3 | log10 Kd, replicates | control signals
GFTFDDYAMH | RIDWNSGSIGYADSVK | VGRRGGYFDY | n.d. / 3.89 / n.d. | 0 of 9
GFTFDDYAMH | GISWNSGMGGYADSVK | VERGGGYFDY | n.d. / n.d. / n.d. | 2 of 9 (3.05)
GFTFDDYFMH | GISWNSGSIGYADSVK | PGRGGGYSDY | 4.22 / n.d. / n.d. | 2 of 9 (4.06)
GFTFDDYACH | GISWNSGSIVYADSVK | SGRGGGYFDY | n.d. / n.d. / n.d. | 0 of 9
GFTFDSYAMH | GASWNSGSAGYADSVK | VGRGGGYFDY | n.d. / n.d. / 3.44 | 0 of 9
GFTFDDYAMH | GISWNSKSIGAADSVK | VGRGGGYFGY | n.d. / n.d. / n.d. | 2 of 9 (4.09)
GNTYDDYAMH | GISWNSGSIRYADSVK | VGRGGGYFDY | 4.80 / n.d. / n.d. | 1 of 9 (4.00)
GFTFDDYAMH | GISWNSGSCGYADSVI | VGRGGGYFDY | 1.27 / 1.86 / 0.91 | 2 of 9 (4.40)
GFTLDDYAMF | GISWWSGSIGYADSVK | VGRGGGYFDY | 4.60 / n.d. / 5.25 | 2 of 9 (4.88)
GFTFDDYAMH | GISWKSFSIGYADSVK | VLRGGGYFDY | 5.50 / n.d. / 4.33 | 5 of 9 (4.54)
GFTFDDYLMH | GISWNSDSIGYTDSVK | VGRGGGYFDY | n.d. / n.d. / n.d. | 3 of 9 (5.11)
GFLFDDYAMH | GISWNSGSIGYADSVK | VGRGGGYTYY | n.d. / n.d. / n.d. | 0 of 9
GFTFDDYAMH | GISWNSGSIGYADSVK | VGAGGHYFDY | n.d. / n.d. / 4.72 | 2 of 9 (3.57)
GFTFYDYAMH | GISWNSGSIGYADSVK | VGCGTGYFDY | n.d. / 5.33 / 4.48 | 5 of 9 (4.95)
GFTFDDYAMH | GISWNSGSIGYAFSTK | VGRAGGYFDY | n.d. / n.d. / n.d. | 0 of 9
WFTFDSYAEH | GISWNSGSIGYADSVK | VGRGGGYFDY | 6.04 / 4.08 / n.d. | 4 of 9 (4.11)
GFTFDDYAMH | GISWNSGSIGYLDSVK | SGRGGGYFDC | 4.89 / 5.36 / 4.25 | 5 of 9 (4.56)
GFTFDDYAMH | GISWYSGSIGYADSVK | VGRGGGYFDY | 5.16 / n.d. / 5.02 | 4 of 9 (4.47)
KFTFDDHAMH | GISWNSGSIGYADSVK | VGRGCGYFDY | n.d. / 5.70 / n.d. | 4 of 9 (4.16)
GFIFDDYAMH | GISWNSGSILYADSVK | VGRGGGYFDL | 3.74 / 3.62 / 3.80 | 7 of 9 (4.71)
GFTSDDYACH | GISWNSGSIGYADSVK | VGRGGGYNDY | n.d. / n.d. / n.d. | 3 of 9 (3.85)
GFTFDDYALH | GISWNSGSIIYAHSVK | VGRGGGYFDY | 4.83 / n.d. / n.d. | 4 of 9 (5.40)
GPTFDDYAMH | GISWNSGSVGYADSVK | VGRGGGYFDH | 2.71 / 3.02 / 2.89 | 1 of 9 (4.42)
GFTFDDYAMH | GISWNEGSIHYADSVK | VGRAGGYFDY | n.d. / n.d. / n.d. | 0 of 9
GFTFDDYAMH | GISWNSGYIGYADEVK | VGKGGGYFDY | 2.89 / 2.25 / 2.32 | 1 of 9 (5.25)
GFTFDDYAMH | GISWMSFSIGYADSVK | VGRGGGYFDM | n.d. / n.d. / n.d. | 1 of 9 (3.26)
GFTFDDYAMH | VISWNSGSIGAADSVK | VGRGGGYFPY | n.d. / n.d. / 4.45 | 4 of 9 (4.71)
GFTFDDYAMH | GVSLNSGSIGYADSVK | VGRGGGYFHY | 3.59 / n.d. / n.d. | 1 of 9 (3.76)
GFTFHDYAMH | GISWASGSIGYADSVK | VGRGGGYKDY | 3.85 / 3.86 / 4.80 | 1 of 9 (4.15)
GFTFDDYAMH | GISWNSGSSGYADSVK | VGRGGGWFWY | 4.30 / n.d. / 4.74 | 5 of 9 (4.78)
GFTFDDYAMH | GTSYHSGSIGYADSVK | VGRGGGYFDY | n.d. / n.d. / n.d. | 0 of 9
GFTEDDYAMH | GISWNSESIGSADSVK | VGRGGGYFDY | n.d. / n.d. / n.d. | 0 of 9
GFTFDDYAME | GISINSGSIGYADSVK | VMRGGGYFDY | n.d. / n.d. / n.d. | 2 of 9 (3.84)
GFTFDDYAMC | GISAPSGSIGYADSVK | VGRGGGYFDY | 4.68 / n.d. / n.d. | 0 of 9
GFFFDDYAMH | GISYNSGSIGYADHVK | VGRGGGYFDY | n.d. / n.d. / n.d. | 0 of 9
GYTWDDYAMH | GISWNSGSIGYADSVK | VGRGGGYVDY | n.d. / n.d. / n.d. | 6 of 9 (5.54)
GFTFDDYAMH | GISWNNGSIGYADCVK | VGRGGGYFDH | n.d. / n.d. / n.d. | 1 of 9 (3.45)
GFTFHDYAMH | GISWNSGSIGYADSVF | VGRGEGYFDY | n.d. / 4.12 / n.d. | 1 of 9 (3.65)
GFTFDDYAMH | GISQNSGPIGYADSVK | IGRGGGYFDY | 4.54 / 5.04 / n.d. | 7 of 9 (4.31)
GFTFDDYAMH | GISYNSGSICYADSVK | VGRGGGYFDY | 5.05 / 3.83 / n.d. | 3 of 9 (4.35)
GFTNDDYAMH | GISWNMGSIGYADSVK | VGRGGGYADY | n.d. / 4.62 / n.d. | 3 of 9 (4.28)
GFTFDDYAMH | LISWNSGSIWYADSVK | VGRGGGIFDY | n.d. / n.d. / n.d. | 0 of 9
GFTFDSYAMH | GISWNSGSIGYADSRK | VGRGGGYFCY | n.d. / n.d. / n.d. | 0 of 9

Extract of 2 entries:

CDR-H1 | CDR-H2 | CDR-H3 | log10 Kd, replicates | control signals
GFTFDDYAMH | GISWNSGSIGYADSVK | VGAGGHYFDY | n.d. / n.d. / 4.72 | 2 of 9 (3.57)
GFTFDDYAMH | VISWNSGSIGAADSVK | VGRGGGYFPY | n.d. / n.d. / 4.45 | 4 of 9 (4.71)